Key:
Homo sapiens [1] = organism: Homo sapiens; experiment: Selectivity ratio of Kd for wild-type human partial length RIPK2 (M1 to K310 residues) to Kd for wild-type human partial length RIPK1 (M1 to K305 residues)
Homo sapiens [2] = organism: Homo sapiens; experiment: Selectivity ratio of Kd for wild-type human partial length RIPK3 (M1 to Q307 residues) to Kd for wild-type human partial length RIPK1 (M1 to K305 residues)
Homo sapiens [3] = organism: Homo sapiens; experiment: Selectivity ratio of Kd for wild-type human partial length RIPK4 (M1 to V303 residues) to Kd for wild-type human partial length RIPK1 (M1 to K305 residues)

Measured: Ratio

CCn1cc(-c2ccc3c(c2)CCN3C(=O)Cc2cccc(OC(F)(F)F)c2)c2c(N)ncnc21
1500: all assays above

Source: ChEMBL document CHEMBL4257593 (J Med Chem, 2018)
